Data on one substance can be found in patent publication US9765029B2, “Pyridine compounds as sodium channel blockers” (Purdue Pharma L.P., priority 2010, dated 2017).

By UniProt entry, the sequences of proteins in these tests, tags left out. Chains listed by the source or under a name are the forms on record and can include a tag or linker.
UniProt Q15858, other isoform, or with tags, fused parts or gaps: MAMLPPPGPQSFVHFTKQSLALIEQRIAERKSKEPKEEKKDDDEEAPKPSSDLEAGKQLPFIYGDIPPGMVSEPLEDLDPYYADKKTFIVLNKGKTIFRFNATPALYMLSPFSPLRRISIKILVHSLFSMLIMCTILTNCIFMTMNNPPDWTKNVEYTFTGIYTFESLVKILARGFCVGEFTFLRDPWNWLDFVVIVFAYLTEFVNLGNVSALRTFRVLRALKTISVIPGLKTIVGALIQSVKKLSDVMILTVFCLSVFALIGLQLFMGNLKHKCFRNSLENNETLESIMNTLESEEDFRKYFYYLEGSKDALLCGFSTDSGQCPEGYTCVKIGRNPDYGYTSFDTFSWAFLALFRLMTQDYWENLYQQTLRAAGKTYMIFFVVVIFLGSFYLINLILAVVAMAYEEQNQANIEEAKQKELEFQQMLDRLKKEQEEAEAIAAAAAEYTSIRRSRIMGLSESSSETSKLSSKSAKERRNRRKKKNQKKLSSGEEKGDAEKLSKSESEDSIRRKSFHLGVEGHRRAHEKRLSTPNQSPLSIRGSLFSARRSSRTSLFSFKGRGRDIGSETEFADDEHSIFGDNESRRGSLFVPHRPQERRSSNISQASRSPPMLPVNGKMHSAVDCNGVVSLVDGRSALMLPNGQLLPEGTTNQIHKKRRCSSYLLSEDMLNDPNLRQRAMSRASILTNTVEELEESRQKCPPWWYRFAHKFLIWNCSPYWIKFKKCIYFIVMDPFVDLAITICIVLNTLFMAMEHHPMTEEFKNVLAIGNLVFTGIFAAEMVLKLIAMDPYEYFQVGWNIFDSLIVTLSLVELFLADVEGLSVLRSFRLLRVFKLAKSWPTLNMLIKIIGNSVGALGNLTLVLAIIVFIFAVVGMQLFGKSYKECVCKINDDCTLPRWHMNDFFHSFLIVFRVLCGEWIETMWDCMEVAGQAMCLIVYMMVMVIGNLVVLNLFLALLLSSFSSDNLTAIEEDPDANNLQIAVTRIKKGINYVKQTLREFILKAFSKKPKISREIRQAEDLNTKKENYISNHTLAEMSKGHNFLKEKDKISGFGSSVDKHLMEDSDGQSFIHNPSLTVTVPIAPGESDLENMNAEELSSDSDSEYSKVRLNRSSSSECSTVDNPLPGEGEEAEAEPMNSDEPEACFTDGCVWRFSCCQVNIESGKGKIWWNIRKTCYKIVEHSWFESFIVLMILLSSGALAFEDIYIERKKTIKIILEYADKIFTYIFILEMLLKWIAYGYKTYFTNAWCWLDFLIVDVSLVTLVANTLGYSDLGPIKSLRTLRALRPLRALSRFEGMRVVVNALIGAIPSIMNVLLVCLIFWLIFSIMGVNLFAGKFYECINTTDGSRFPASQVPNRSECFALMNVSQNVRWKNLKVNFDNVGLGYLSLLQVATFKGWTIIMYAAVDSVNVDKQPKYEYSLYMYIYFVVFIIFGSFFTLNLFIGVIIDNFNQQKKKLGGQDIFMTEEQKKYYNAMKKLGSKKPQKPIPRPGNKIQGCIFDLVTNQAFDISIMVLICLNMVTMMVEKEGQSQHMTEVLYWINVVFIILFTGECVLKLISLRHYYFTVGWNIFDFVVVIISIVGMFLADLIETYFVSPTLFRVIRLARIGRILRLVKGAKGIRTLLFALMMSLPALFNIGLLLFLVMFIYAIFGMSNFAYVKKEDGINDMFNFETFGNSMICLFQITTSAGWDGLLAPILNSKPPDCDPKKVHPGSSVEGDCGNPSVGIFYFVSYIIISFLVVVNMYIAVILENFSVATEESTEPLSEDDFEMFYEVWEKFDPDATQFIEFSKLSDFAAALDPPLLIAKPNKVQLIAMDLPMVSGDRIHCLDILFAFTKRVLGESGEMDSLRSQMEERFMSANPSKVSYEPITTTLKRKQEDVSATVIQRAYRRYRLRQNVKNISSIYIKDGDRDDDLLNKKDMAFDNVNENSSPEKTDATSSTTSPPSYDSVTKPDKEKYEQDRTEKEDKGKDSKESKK

The target of the experiment is human Nav1.7 (Homo sapiens (Human), UniProt Q15858). Kind of experiment: FLIPR or FLIPR TETRA sodium dye assay with KCl and test article pre-incubation. Particulars: read-out: Nav1.7 IC50 (μM) ± SEM. It is filed as cell-based. As to the method:
In vitro assays were performed in a recombinant cell line expressing cDNA encoding the alpha subunit (Nav1.7, SCN9a, PN1, NE) of human Nav1.7 (Accession No. NM_002977). The cell line was provided by investigators at Yale University (Cummins et al, J. Neurosci. 18(23): 9607-9619 (1998)). For dominant selection of the Nav1.7-expressing clones, the expression plasmid co-expressed the neomycin resistance gene. The cell line was constructed in the human embryonic kidney cell line, HEK293, under the influence of the CMV major late promoter, and stable clones were selected using limiting dilution cloning and antibiotic selection using the neomycin analogue, G418. Recombinant beta and gamma subunits were not introduced into this cell line. […]
The fluorescence indicator used in the primary fluorescence assay was the cell permeant version of CoroNa™ Green (Invitrogen, Molecular Probes, Eugene, Oreg.), a dye that emits light in the fluorescence range (Harootunian et al., J. Biol. Chem. 264(32):19458-19467 (1989)). […] Cells expressing Nav1.7 or other sodium channels were loaded with the CoroNa™ Green dye immediately in advance of the fluorescence assay, and then, after agonist stimulation, the mobilization of Na^+ ions was detected as the Na^+ions flowed from the extracellular fluid into the cytoplasm through the activated sodium channel pores. […]

As to “6-(4-(4-fluorophenoxyl)phenyl)-N-(2-(pyridine-3-sulfonamido)ethyl) picolinamide [Compound 22]”, the IC50 stood at 0.31 ± 0.03 µM.

One may read the IC50 as the point on the concentration scale where inhibition reaches its midpoint.
